From patent US20250114396A1, “CHLORITE USES FOR STEM CELLS” (The Regents of the University of California, priority 2023, published 2025)

Legend:
patients with ALS = conditions: patients receiving NP001 who expressed LPS activation pathways
Source text: Non-limiting examples of measures of clinical response include the ALS Functional Rating Scale Revised (ALSFRS-R) and respiratory vital capacity.
Stem cell reprogramming for long term disease regulation is evidenced by finding normalization of biomarkers for at least one month after the last dose in the 6-month administration procedure.
A major subset of ALS patients show evidence for ongoing inflammation that potentially contributes to disease progression.

[1] = in vivo

For sodium chlorite [NP001], the “side effects in patients” value (patients with ALS) was “no observed side effects”, the “side effects in HSC cultures” value (CD 34+ HSCs) was “no observed side effects” and the half-life [1] was “minutes”.
